Values of other authors in patent US10065990B2, “Cyclic peptide compound, and preparation method, pharmaceutical composition and use thereof” (HANGZHOU GUANYU BIO-MEDICAL CO., LTD, priority 2013, dated 2018).

Sequences of proteins named here, by UniProt entry; tags and fusion partners are left off.
UniProt Q13547, whole entry: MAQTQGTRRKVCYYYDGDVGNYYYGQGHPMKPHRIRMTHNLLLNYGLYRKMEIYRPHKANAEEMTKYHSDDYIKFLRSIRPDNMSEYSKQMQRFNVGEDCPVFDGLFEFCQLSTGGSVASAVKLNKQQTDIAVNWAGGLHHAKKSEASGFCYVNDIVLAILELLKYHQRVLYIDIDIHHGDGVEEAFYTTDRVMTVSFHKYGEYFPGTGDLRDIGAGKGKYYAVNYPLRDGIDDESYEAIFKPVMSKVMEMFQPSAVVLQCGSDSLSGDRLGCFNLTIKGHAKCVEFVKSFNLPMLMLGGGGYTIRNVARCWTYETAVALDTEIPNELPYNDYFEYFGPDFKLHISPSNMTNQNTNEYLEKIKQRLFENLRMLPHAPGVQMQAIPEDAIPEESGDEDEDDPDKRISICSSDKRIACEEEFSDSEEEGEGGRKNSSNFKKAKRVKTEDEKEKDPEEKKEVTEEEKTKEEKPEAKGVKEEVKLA

Target: HDAC1 (Homo sapiens, UniProt Q13547)
Details: read-out: IC50 HDAC1, b (compounds of CN102391359A); Table 2, column b, comparison compounds of CN102391359A; cited from earlier work

SMILES: C/C=C1\NC(=O)c2csc(n2)CNC(=O)C[C@@H](/C=C/CCSC(=O)CCCCCCC)OC(=O)[C@H](CSCC)NC1=O
- IC50: < 100 nM
